Experimental data from patent US11111242B2, “Pyrrolo[2,3-d]pyrimidinyl, pyrrolo[2,3-b]pyrazinyl and pyrrolo[2,3-d]pyridinyl acrylamides” (Pfizer Inc., priority 2013, dated 2021).

What was measured:
[1] = system: IL-15 induced STAT5 phosphorylation in Human Whole Blood (total lymphocytes); experiment: HWB IL-15 Induced STAT5 Phosphorylation Assay; assay type: cell-based; details: Lymphocyte, read-out: HWB-IL15-pSTAT5 IC50 (nM)
Procedure: HWB IL-15 Induced STAT5 Phosphorylation Assay
After mixing and incubating for 45 minutes at 37° C., 5 μl D-PBS (unstimulated control) or 20× stocks of 5 μl human IL-15 (final concentration is 50 ng/ml) were added, and mixed three times. After incubating 15 minutes at 37° C., 1× Lyse/Fix Buffer (BD Phosflow 5× Lyse/Fix Buffer) was added to all wells at 1000 μl/well, then incubated for 20 minutes at 37° C. and spun 5 mins at 1200 rpm. […] Following incubating at 4° C. over night, all the samples were transferred to 96-well polypropylene U-bottom plate, and checked by flow cytometry gated on total lymphocytes.

[2] = system: IL-15 induced P-STAT5 in human PBMC (total lymphocytes); experiment: PBMC IL-15 Induced P-STAT5; assay type: cell-based; details: read-out: PBMC IL15-pSTAT5 IC50 (nM)
Procedure: PBMC IL-15 Induced P-STAT5
Frozen human PBMC (200-250 million cells/vial) was thawed at 37° C. The cells were transferred to 10 mL warm medium in a 50-mL conical tube, and centrifuged at 1,200 RPM at room temperature for 5 min. The supernatant was aspirated. Cells were suspended in 3 mL warm human plasma and incubated at 37° C. in a tissue culture incubator for 1.5 to 2 h. After adding 47 ml D-PBS (37° C.) to PBMC/FBS suspension, centrifuging at 1,200 RPM at room temperature for 5 min, and aspirating the supernatant, the cells were resuspended in 20 mL warm RPMI medium. Ninety μL of cell suspension were pipetted per well in a 96-well, deep-well, V-bottom plate, and the plate was incubated at 37° C. for 30 min. Five μL of compound were transferred to each well (final 0.2% DMSO), vortex gently and incubate at 37° C. for 15 min; 5 μL 4% DMSO/PBS were added to the control wells. […] Samples were analyzed using a BD Calibur™ or BD FACSCanto™ flow cytometer equipped with the BD High Throughput Sampler.

SMILES: C=CC(=O)N1[C@H]2CC[C@@H]1[C@H](Nc1ncnc3[nH]ccc13)CC2 [Example 16, 1-((1R,2R,5R)-2-((7H-Pyrrolo[2,3-d]pyrimidin-4-yl)amino)-8-azabicyclo[3.2.1]octan-8-yl)prop-2-en-1-one]
- IC50 [1]: 499 nM
- IC50 [2]: 61.5 nM

SMILES: C=CC(=O)N1C2CCC(Nc3ncnc4[nH]ccc34)C1CC2 (stereo not shown) [Example 56, 1-(2-((7H-Pyrrolo[2,3-d]pyrimidin-4-yl)amino)-8-azabicyclo[3.2.1]octan-8-yl)prop-2-en-1-one]
- IC50 [1]: 2100 nM
- IC50 [2]: 158 nM
